Laboratory results as given in ChEMBL document CHEMBL4665709, “Rational Avoidance of Protease Cleavage Sites and Symmetrical End-Tagging Significantly Enhances the Stability and Therapeutic Potential of Antimicrobial Peptides” (J Med Chem, 2020).

Columns and labels:
Staphylococcus aureus [1] = test: Antibacterial activity against Staphylococcus aureus ATCC 29213 after 18 to 24 hrs by CLSI-based broth microdilution method; format: functional; details: time hrs 18-24
Staphylococcus aureus [2] = test: Antibacterial activity against Staphylococcus aureus 11011 after 18 to 24 hrs by CLSI-based broth microdilution method; format: functional; details: time hrs 18-24
Escherichia coli [3] = test: Antibacterial activity against Escherichia coli ATCC 25922 after 18 to 24 hrs by CLSI-based broth microdilution method; format: functional; details: time hrs 18-24
Escherichia coli [4] = test: Antibacterial activity against Escherichia coli UB1005 after 18 to 24 hrs by CLSI-based broth microdilution method; format: functional; details: time hrs 18-24
Salmonella typhimurium [5] = test: Antibacterial activity against Salmonella typhimurium 14028 after 18 to 24 hrs by CLSI-based broth microdilution method; format: functional, Salmonella enterica subsp. enterica serovar Typhimurium; details: Salmonella enterica, time hrs 18-24
Salmonella typhimurium [6] = test: Antibacterial activity against Salmonella typhimurium 7731 after 18 to 24 hrs by CLSI-based broth microdilution method; format: functional, Salmonella enterica subsp. enterica serovar Typhimurium; details: Salmonella enterica, time hrs 18-24
[7] = system: Staphylococcus epidermidis; test: Antibacterial activity against Staphylococcus epidermidis ATCC 12228 after 18 to 24 hrs by CLSI-based broth microdilution method; format: functional; details: time hrs 18-24
Staphylococcus aureus [8] = test: Antibacterial activity against methicillin-resistant Staphylococcus aureus 43300 after 18 to 24 hrs by CLSI-based broth microdilution method; format: functional; details: time hrs 18-24
Escherichia coli [9] = test: Antibacterial activity against Escherichia coli ATCC 25922 after 18 to 24 hrs in presence of 150 mM Na+ by CLSI-based broth microdilution method; format: functional; details: time hrs 18-24
Escherichia coli [10] = test: Antibacterial activity against Escherichia coli ATCC 25922 after 18 to 24 hrs in presence of 4.5 mM K+ by CLSI-based broth microdilution method; format: functional; details: time hrs 18-24
Escherichia coli [11] = test: Antibacterial activity against Escherichia coli ATCC 25922 after 18 to 24 hrs in presence of 1 mM Mg2+ by CLSI-based broth microdilution method; format: functional; details: time hrs 18-24
Escherichia coli [12] = test: Antibacterial activity against Escherichia coli ATCC 25922 after 18 to 24 hrs in presence of 8 uM Zn2+ by CLSI-based broth microdilution method; format: functional; details: time hrs 18-24
Escherichia coli [13] = test: Antibacterial activity against Escherichia coli ATCC 25922 after 18 to 24 hrs in presence of 6 uM NH4+ by CLSI-based broth microdilution method; format: functional; details: time hrs 18-24
Escherichia coli [14] = test: Antibacterial activity against Escherichia coli ATCC 25922 after 18 to 24 hrs in presence of 6 uM Fe3+ by CLSI-based broth microdilution method; format: functional; details: time hrs 18-24
Escherichia coli [15] = test: Antibacterial activity against Escherichia coli ATCC 25922 after 18 to 24 hrs in presence of 25% human serum by CLSI-based broth microdilution method; format: functional; details: time hrs 18-24
Escherichia coli [16] = test: Antibacterial activity against Escherichia coli ATCC 25922 after 18 to 24 hrs in presence of 50% human serum by CLSI-based broth microdilution method; format: functional; details: time hrs 18-24
Escherichia coli [17] = test: Antibacterial activity against Escherichia coli ATCC 25922 after 18 to 24 hrs in presence of 100% human serum by CLSI-based broth microdilution method; format: functional; details: time hrs 18-24
Staphylococcus aureus [18] = test: Antibacterial activity against Staphylococcus aureus ATCC 29213 after 18 to 24 hrs in presence of 150 mM Na+ by CLSI-based broth microdilution method; format: functional; details: time hrs 18-24
Staphylococcus aureus [19] = test: Antibacterial activity against Staphylococcus aureus ATCC 29213 after 18 to 24 hrs in presence of 4.5 mM K+ by CLSI-based broth microdilution method; format: functional; details: time hrs 18-24
Staphylococcus aureus [20] = test: Antibacterial activity against Staphylococcus aureus ATCC 29213 after 18 to 24 hrs in presence of 1 mM Mg2+ by CLSI-based broth microdilution method; format: functional; details: time hrs 18-24
Staphylococcus aureus [21] = test: Antibacterial activity against Staphylococcus aureus ATCC 29213 after 18 to 24 hrs in presence of 8 uM Zn2+ by CLSI-based broth microdilution method; format: functional; details: time hrs 18-24
Staphylococcus aureus [22] = test: Antibacterial activity against Staphylococcus aureus ATCC 29213 after 18 to 24 hrs in presence of 6 uM NH4+ by CLSI-based broth microdilution method; format: functional; details: time hrs 18-24
Staphylococcus aureus [23] = test: Antibacterial activity against Staphylococcus aureus ATCC 29213 after 18 to 24 hrs in presence of 6 uM Fe3+ by CLSI-based broth microdilution method; format: functional; details: time hrs 18-24
Staphylococcus aureus [24] = test: Antibacterial activity against Staphylococcus aureus ATCC 29213 after 18 to 24 hrs in presence of 25% human serum by CLSI-based broth microdilution method; format: functional; details: time hrs 18-24
Staphylococcus aureus [25] = test: Antibacterial activity against Staphylococcus aureus ATCC 29213 after 18 to 24 hrs in presence of 50% human serum by CLSI-based broth microdilution method; format: functional; details: time hrs 18-24
Staphylococcus aureus [26] = test: Antibacterial activity against Staphylococcus aureus ATCC 29213 after 18 to 24 hrs in presence of 100% human serum by CLSI-based broth microdilution method; format: functional; details: time hrs 18-24

Measured: MIC

CC[C@H](C)[C@H](NC(=O)CN)C(=O)NCC(=O)N[C@@H](C)C(=O)N[C@H](C(=O)N[C@@H](CC(C)C)C(=O)N[C@@H](CCCCN)C(=O)N[C@H](C(=O)N[C@@H](CC(C)C)C(=O)N[C@H](C(=O)N[C@H](C(=O)NCC(=O)N[C@@H](CC(C)C)C(=O)N1CCC[C@H]1C(=O)N[C@@H](C)C(=O)N[C@@H](CC(C)C)C(=O)N[C@H](C(=O)N[C@@H](CO)C(=O)N[C@@H](Cc1c[nH]c2ccccc12)C(=O)N[C@H](C(=O)N[C@@H](CCCCN)C(=O)N[C@@H](CCCNC(=N)N)C(=O)N[C@@H](CCCCN)C(=O)N[C@@H](CCCNC(=N)N)C(=O)N[C@@H](CCC(N)=O)C(=O)N[C@@H](CCC(N)=O)C(N)=O)[C@@H](C)CC)[C@@H](C)CC)[C@@H](C)O)[C@@H](C)O)C(C)C)C(C)C [MELITTIN]
8 µM: Escherichia coli [15] | Escherichia coli [16] | Escherichia coli [17] | Staphylococcus aureus [24] | Staphylococcus aureus [26]
4 µM: Escherichia coli [9] | Escherichia coli [11] | Staphylococcus aureus [18] | Staphylococcus aureus [20] | Staphylococcus aureus [25]
2 µM: all other assays above
